# Values quoted from earlier work, collected in patent US20200224136A1, “INTESTINE-CHIP: DIFFERENTIAL GENE EXPRESSION MODEL” (priority 2019, published 2020).
# System: Caco-2 cell monolayers
# Details: cited from earlier work
substance,measurement,value
Larazotide acetate,AT-1002-induced TEER reduction and tight junction opening in Caco-2 cells,rescued
same,translocation of a gliadin 13-mer peptide across Caco-2 cell monolayers,inhibited
